# Measured values: patent US5294603A, “Pharmaceutical compositions containing didemnins” (The Board of Trustees of The University of Illinois, priority 1992, dated 1994)
# Test system: L1210 murine leukemia cells
# Details: Table 9
row,Substance,Cytotoxicity L1210 IC50 [µg/mL]
1,N-(CH3 ONsu)didemnin A [N-(CH3 ONsu)-didemnin A (111)],0.001
2,N-(D-Prolyl) didemnin A [N-(D-Pro)Didemnin A (101)],0.06
